TrxR1 substrate – is turned over as a substrate by rat TrxR1 | O89049 | purified TrxR1 substrate turnover, NADPH consumption readout | 0.01% of 390,000 active | Potency, µM (top dose mostly 114 µM), without a hit: at the highest dose activity change, negative = substrate turnover; also: potency is read from the fitted curve at half-maximal effect; % is scaled to controls: 0 for no effect and ±100 for the full control effect; nearly all actives have a fitted effect of over 50% in size
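Rat TrxR1, dispensed at 90 nM, was prereduced with 400 uM NADPH (final) for 5 min at ~22 deg C, then incubated with compound 15 min before 400 uM selenite. A first-read NADPH fluorescence drop versus no-compound background flagged substrates.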
ClpP mod – qHTS Assay for Activators of ClpP | ATP-dependent Clp protease proteolytic subunit (Bacillus subtilis (strain 168)), P80244 | purified B. subtilis ClpP, FRET peptide cleavage, 20 min | Potency, µM (top dose mostly 57.5 µM), for inactives: at the top dose activity change, negative = active | 1.9% of 340,000 active | AID 651965, 2013; active = well fitted falling curve with a large enough effect; inconclusive = small, poorly fitted or top-dose-only effect; inactive = no such curve, though single readings can be large or run the other way; also: potency is read from the fitted curve at half-maximal effect; the source files actives as falling curves though it sought activators and does not explain the sign; nearly all actives have a fitted effect of over 65% in size
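FRET quenching reversal measured ClpP activation: 10 microg/mL B. subtilis ClpP at pH 8 with the FRET-FV decapeptide, read at 430 nm after 320 nm excitation. The 20-min minus 0-min signal was scaled between DMSO/no-enzyme wells and ADEP (5.8 microM final).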
miR-21 FLuc – miR-21 reporter, rising signal | 340,000 tested, under 10 active | AID 2288 | HeLa miR-21 FLuc reporter, luciferase, 48 h | Potency, µM (titrated, usually from 38.3 µM), for inactives: at the highest dose reporter change, positive = more light; active = well fitted rising curve with a large enough effect; inconclusive = small, poorly fitted or top-dose-only effect; inactive = no such curve, though single readings can be large or run the other way;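 further: % of control where 0% means no effect; miR-21 action dims this reporter so a rising signal means less miR-21 action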
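Using DMEM plus 10% FBS, HeLa miR-21-FLuc cells are incubated with test compounds (final up to about 40uM) for 48 hours; firefly luciferase signal is then imaged following reagent-mediated lysis.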
TrxR1 inh – rat TrxR1 inhibition. O89049. 1% of 390,000 active. Potency, µM (titrated, usually from 114 µM), inactives show at the highest dose activity change, negative = inhibition, most hits filed as inhibitors. AID 588453. recombinant rTrxR1, NADPH fluorescence consumption, selenite substrate; also: potency is read from the fitted curve at half-maximal effect; % is scaled to controls: 0 for no effect and ±100 for the full control effect; nearly all actives have a fitted effect of over 65% in size
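Rat TrxR1 (90 nM in the dispensed reagent) was pre-reduced with 400 uM NADPH for 5 min at room temperature, then incubated with compound for 15 min. After 400 uM selenite was added, NADPH fluorescence (Ex 340/Em 450 nm) was followed for 8 min.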
Anesthetic bind – binds horse apoferritin like a general anesthetic | P02791 | apoferritin/1-aminoanthracene competitive binding, fluorescence | Potency, µM (doses to about 77.5 µM), for inactives: top-dose activity change, negative = displacement, most hits filed as inhibitors | 0.074% of 350,000 active | AID 485281; also: potency is read from the fitted curve at half-maximal effect; % is scaled to controls: 0 for no effect and ±100 for the full control effect; nearly all actives have a fitted effect of over 20% in size
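Read-out: endpoint 1-AMA fluorescence, excitation 380 nm and emission 535 nm, after compounds sit 10 min at room temperature with 10 uM horse-spleen apoferritin in 50% saturated 1-AMA/PBS. Values come from four-parameter Hill fits.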
Starred values were filed as active, the others as inactive; ? = inconclusive; · = no result; ! = a repeat was not active; [ ] = another dose, or the depositor's remark. In the library only some 2.5% were active in any assay of this set; here they are far more common. Unless noted, calls follow the shape of the dose curve; as a rule, active = well fitted curve in the direction sought with a large enough effect; inconclusive = small, poorly fitted or top-dose-only effect, or another doubt; inactive = no such curve, though single readings can be large; an effect the other way counts as inactive or inconclusive.

Protein sequences, listed by entry. Tags and fused reporters are not part of them.
ATP-dependent Clp protease proteolytic subunit (Bacillus subtilis (strain 168)), P80244, UniProt P80244, whole entry, looked up: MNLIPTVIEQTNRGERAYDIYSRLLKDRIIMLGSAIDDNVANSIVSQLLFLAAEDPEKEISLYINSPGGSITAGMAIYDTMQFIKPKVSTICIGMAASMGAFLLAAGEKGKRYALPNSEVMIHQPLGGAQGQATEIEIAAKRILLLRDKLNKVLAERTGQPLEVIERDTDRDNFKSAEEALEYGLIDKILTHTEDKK

#1 Cc1cc(N(CCCl)CCCl)ccc1/C=N/NC(=O)c1ccco1
#2 Cc1cc(N(CCCl)CCCl)ccc1C=NNC(=O)Cc1cc(=O)oc2cc(O)ccc12
#3 NC(Cc1ccc(N(CCCl)CCCl)cc1)C(=O)O (centres undefined)
#4 CC(=O)NC(Cc1ccc(N(CCCl)CCCl)cc1)C(=O)NC(C(=O)O)C(C)C (centres undefined)
#5 Cc1ccc(C(=O)Nc2c(C(=O)Nc3ccc(C)c(C)c3)sc3nc(C)cc(C)c23)cc1

assay / compound | 1 | 2 | 3 | 4 | 5
TrxR1 substrate | 16% | 138% | 3%[57.1 µM] | 5%[57.1 µM] | 12%[11.4 µM]
ClpP mod | 0% | 28µM* | -4% | · | -17%
miR-21 FLuc | -39% | · | · | -2% | -53%
TrxR1 inh | -17% | -23% | 40µM* | ? | 1%
Anesthetic bind | 235% | · | · | 0% | -3%

#6 O=c1c2ccccc2[se]n1-c1ccccc1
#7 CCCOc1ccc(C(=O)Nc2ccc(-c3cc4ccccc4oc3=O)c(C)c2)cc1
#8 CN(N=O)c1cc(O)ccc1O
#9 C=C(C)C1CCC(C)=CC1c1c(OC)cc(C)cc1OC (centres undefined)
#10 Oc1cccc2cccnc12

assay / compound | 6 | 7 | 8 | 9 | 10
TrxR1 substrate | ? | 150% | 3%[57.1 µM] | · | 6%
ClpP mod | -1% | 4% | · | · | ·
miR-21 FLuc | ? | 17% | · | · | 4%
TrxR1 inh | 28µM*! | 65% | 0.75µM* | · | 13%
Anesthetic bind | ? | 37% | · | -12% | -6%

#11 Oc1c(C(Nc2cccnc2)c2ccccc2F)ccc2cccnc12 (centres undefined)
#12 CN(C)c1ccc(/C=C2\CCCN=C2c2cccnc2)cc1
#13 c1ccc(Nc2ccc(Nc3ccccc3)cc2)cc1
#14 N#CC(C#N)=C(C#N)c1ccc(Nc2ccccc2)cc1
#15 C=C1CC[C@H](O)C/C1=C/C=C1\CCC[C@]2(C)[C@H]1CC[C@H]2[C@@H](C)CCCC(C)C

assay / compound | 11 | 12 | 13 | 14 | 15
TrxR1 substrate | 1% | · | 3% | -1% | ·
ClpP mod | 4% | · | ? | · | ·
miR-21 FLuc | · | · | · | -2% | ·
TrxR1 inh | 1.4µM* | · | -11% | 7.1µM* | ·
Anesthetic bind | · | 2% | · | -5% | -2%[29.3 µM]

#16 COc1ccccc1NC(=O)c1oc2ccccc2c1NC(=O)COc1cccc(C)c1
#17 Cc1ccc(C=C2C(Cl)=C(Cl)C(Cl)=C2Cl)cc1
#18 COc1ccc(CNC(=O)Cn2c(SCC(=O)Nc3ccc(C)c(C)c3)nc3ccccc32)cc1
#19 COc1ccc(-c2nc3ccccc3o2)cc1NC(=O)Cc1ccc(Cl)cc1
#20 O=S(=O)(Nc1ccc(-c2nc3ccccc3o2)cc1)c1ccccc1

assay / compound | 16 | 17 | 18 | 19 | 20
TrxR1 substrate | 3% | 1% | 4%[57.1 µM] | 0% | -3%
ClpP mod | 18% | · | -2% | ? | 28µM*
miR-21 FLuc | -1% | -3% | -9% | -33% | -43%
TrxR1 inh | 11% | 3.2µM* | 18%[57.1 µM] | -9% | -3%
Anesthetic bind | 7% | -7% | 38% | -6% | ?

#21 CC(Oc1ccc(Cl)cc1Cl)C(=O)Nc1ccc(S(=O)(=O)Nc2cnc3ccccc3n2)cc1 (centres undefined)
#22 C[C@@H]1C[C@@H]2[C@H]([C@H]3C=C(COC(=O)c4ccccc4)[C@@H](O)[C@]4(O)[C@@H](O)C(OC(=O)c5ccccc5)=C[C@@]14C3=O)C2(C)C
#23 O=C(NCCCN1CC1)Nc1cccc2ccccc12
#24 CCOC(=O)N1CCN(/[N+]([O-])=N/Oc2ccc([N+](=O)[O-])cc2[N+](=O)[O-])CC1C (centres undefined)
#25 CCOC(=O)N1CCCN(/[N+]([O-])=N/Oc2ccc([N+](=O)[O-])cc2[N+](=O)[O-])CC1

assay / compound | 21 | 22 | 23 | 24 | 25
TrxR1 substrate | 9%[57.1 µM] | · | 24%[57.1 µM] | -16% | -11%
ClpP mod | 16µM* | · | 25µM* | · | ·
miR-21 FLuc | -26% | · | · | · | ·
TrxR1 inh | 13%[57.1 µM] | · | 12%[11.4 µM] | ? | 16µM*
Anesthetic bind | -16% | 9% | · | -8% | -23%

Arranged by length of the SMILES (ascending): some entries from above
#23 O=C(NCCCN1CC1)Nc1cccc2ccccc12
#21 CC(Oc1ccc(Cl)cc1Cl)C(=O)Nc1ccc(S(=O)(=O)Nc2cnc3ccccc3n2)cc1 (centres undefined)
#24 CCOC(=O)N1CCN(/[N+]([O-])=N/Oc2ccc([N+](=O)[O-])cc2[N+](=O)[O-])CC1C (centres undefined)
#22 C[C@@H]1C[C@@H]2[C@H]([C@H]3C=C(COC(=O)c4ccccc4)[C@@H](O)[C@]4(O)[C@@H](O)C(OC(=O)c5ccccc5)=C[C@@]14C3=O)C2(C)C

assay / compound | 23 | 21 | 24 | 22
TrxR1 substrate | 24%[57.1 µM] | 9%[57.1 µM] | -16% | ·
ClpP mod | 25µM* | 16µM* | · | ·
miR-21 FLuc | · | -26% | · | ·
TrxR1 inh | 12%[11.4 µM] | 13%[57.1 µM] | ? | ·
Anesthetic bind | · | -16% | -8% | 9%

(more compounds)
#26 O=C1C(=O)c2cccc3cccc1c23
#27 O=C1C(=O)c2ccccc2-c2ccccc21
#28 O=C1NC(=O)C(=Cc2c(Cl)cccc2Cl)C(=O)N1
#29 C(=C\c1ccccc1)/CN1CCN(CCOC(c2ccccc2)c2ccccc2)CC1
#30 CCN1C[C@]2(COC(=O)c3ccccc3N)CC[C@H](OC)C34[C@@H]5C[C@H]6[C@H](OC)[C@@H]5[C@](O)(C[C@@H]6OC)[C@@](O)([C@H]13)[C@@H](OC)[C@@H]42

assay / compound | 26 | 27 | 28 | 29 | 30
TrxR1 substrate | 9% | 3.2µM* | -3% | · | 71%
ClpP mod | -1% | 2% | 1% | · | 4%
miR-21 FLuc | 1% | ? | · | · | 6%
TrxR1 inh | 26% | 10µM* | 13µM* | · | -13%
Anesthetic bind | -11% | -16% | · | -6% | 1%

#31 CCN1CC2(COC(=O)c3ccccc3N)CCC(OC)C34C5CC6C(OC)CC(O)(C5C6OC)C(O)(C(OC)C23)C14 (centres undefined)
#32 CCCCn1c(O)c(C(CC)=Nc2ccc(C(=O)O)cc2)c(=O)[nH]c1=O
#33 CN1CC=C2C(C#N)=C(N)C(C#N)(C#N)C(c3ccncc3)C2C1 (centres undefined)
#34 COc1cccc(NC(=O)C2CCN(c3nnc(C)c4c(C)n(-c5ccccc5)nc34)CC2)c1
#35 Cc1cc(=O)oc2c(C)c(OC3CCCCC3=O)ccc12 (centres undefined)

assay / compound | 31 | 32 | 33 | 34 | 35
TrxR1 substrate | 27%[57.1 µM] | 8%[57.1 µM] | 77% | 15%[57.1 µM] | 67%
ClpP mod | 16µM* | 2.5µM* | 28µM* | ? | ·
miR-21 FLuc | -5% | -14% | -1% | 14% | -26%
TrxR1 inh | -25% | 16%[57.1 µM] | 5%[57.1 µM] | 28%[57.1 µM] | ?
Anesthetic bind | 32% | -6% | 105% | -18% | -7%

#36 C=C1[C@@H](C)[C@H]2[C@H](Cc3ccccc3)NC(=O)[C@]23OC(=O)/C=C/[C@H](O)CCC[C@@H](C)C/C=C/[C@H]3[C@@H]1O
#37 C=C1C(=O)[C@@]23C[C@H]4[C@@H]5[C@@]6(C)CCC[C@@]57[C@@H]2[C@@H](O)[C@@H]1C[C@H]3[C@H]7N4C6
#38 CNc1cc(Cl)c2nonc2c1[N+](=O)[O-]
#39 CC(=O)C(O)C(c1ccccc1)c1c(O)c2ccccc2oc1=O (centres undefined)
#40 Cc1ccc(S(=O)(=O)N(CC(=O)NCCSc2ccc(Cl)cc2)c2ccccc2C)cc1

assay / compound | 36 | 37 | 38 | 39 | 40
TrxR1 substrate | 4% | 1% | -2%[57.1 µM] | · | -5%
ClpP mod | 1% | -2% | · | · | -3%
miR-21 FLuc | 15% | · | ? | · | ?
TrxR1 inh | 50µM*! | 22µM* | 0.35µM* | · | 5%
Anesthetic bind | 3% | · | -9% | -13% | 97%

#41 CCC(=O)C1=C(c2cccc([N+](=O)[O-])c2)N(C(=O)CC)n2c(nnc2C2CCCCC2)S1
#42 N#CC(C#N)=Cc1ccc(C=C(C#N)C#N)cc1
#43 Cc1ccc(/C=C2/C(=O)NC(=O)N(CC3CCCO3)C2=O)s1 (centres undefined)
#44 CN1C(=O)c2ccccc2Sc2ccc(NC(=O)c3ccc(C(F)(F)F)cc3)cc21
#45 Fc1cccc(-c2ccc3c(c2)CN(c2cccc(Cl)c2)Cc2cnnn2-3)c1
#46 COc1cccc(CSc2nc(-c3ccccc3OC)nc3c2Cc2c(CO)cnc(C)c2O3)c1

assay / compound | 41 | 42 | 43 | 44 | 45 | 46
TrxR1 substrate | 11%[57.1 µM] | -5% | -1% | -9%[57.1 µM] | · | 0%
ClpP mod | 1% | · | -1% | 6% | 32µM* | -4%
miR-21 FLuc | ? | 0% | -22% | ? | · | 0%
TrxR1 inh | 29%[57.1 µM] | 7.9µM* | 50µM* | -3%[57.1 µM] | · | 6%
Anesthetic bind | ? | -1% | -12% | 2% | · | ?

Assay outcomes from PubChem BioAssay.
